According to ChEMBL document CHEMBL1221219, “Selective blockade of 2-arachidonoylglycerol hydrolysis produces cannabinoid behavioral effects” (Nat Chem Biol, 2009):

System: Mus musculus
Test: Inhibition of MAGL in C57B1/6J mouse brain membrane assessed as increase in 2-AG level at 16 mg/kg, ip upto 8 hrs by competitive activity-based protein profiling method relative to control
Format: functional
Conditions: route intraperitoneal

**Q.** With O=C(Oc1ccc([N+](=O)[O-])cc1)N1CCC(C(O)(c2ccc3c(c2)OCO3)c2ccc3c(c2)OCO3)CC1 as the compound, how does the “fold change (FC)” value read?
**A.** Its value is 7.
